## Permeability data for macrocyclic peptides

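Lipid, pH, incubation time, direction and concentration are not recorded in the data file. The list need not hold all peptides of the study. Peptides that the database sets to -10, its floor, are left out.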

PAMPA measures passive passage through an artificial lipid membrane. Values are log10 P with P in cm/s, so -5 is more permeable than -7.

structure (SMILES)	PAMPA (log10 cm/s)
CC(=O)N1CCC[C@@H]1C(=O)N(C)[C@@H](CC(C)C)C(=O)N[C@@H]1C(=O)N(C)[C@@H](CC(C)C)C(=O)N[C@@H](CC(C)C)C(=O)N(C)[C@H](CC(C)C)C(=O)N(C)[C@@H](C)C(=O)N[C@H](CC(C)C)C(=O)N2CCC[C@H]2C(=O)O[C@@H]1C	-6.11
CC(=O)N1CCC[C@@H]1C(=O)N(C)[C@@H](CC(C)C)C(=O)N[C@@H]1C(=O)N[C@H](CC(C)C)C(=O)N(C)[C@@H](CC(C)C)C(=O)N(C)[C@H](CC(C)C)C(=O)N(C)[C@H](C)C(=O)N[C@H](CC(C)C)C(=O)N2CCC[C@H]2C(=O)O[C@@H]1C	-5.41
CC(=O)N1CCC[C@@H]1C(=O)N(C)[C@@H](CC(C)C)C(=O)N[C@@H]1C(=O)N[C@@H](CC(C)C)C(=O)N(C)[C@@H](CC(C)C)C(=O)N(C)[C@H](CC(C)C)C(=O)N[C@@H](C)C(=O)N[C@H](CC(C)C)C(=O)N2CCC[C@H]2C(=O)O[C@@H]1C	-6.60
CC(=O)N1CCC[C@H]1C(=O)N[C@@H]1C(=O)N[C@H](CC(C)C)C(=O)N[C@@H](CC(C)C)C(=O)N[C@H](CC(C)C)C(=O)N[C@@H](CC(C)C)C(=O)N[C@@H](C)C(=O)N[C@@H](CC(C)C)C(=O)N2CCC[C@@H]2C(=O)O[C@@H]1C	-6.45
CC(=O)N1CCC[C@H]1C(=O)N(C)[C@@H](CC(C)C)C(=O)N[C@@H]1C(=O)N(C)[C@@H](CC(C)C)C(=O)N(C)[C@@H](CC(C)C)C(=O)N[C@@H](CC(C)C)C(=O)N(C)[C@@H](C)C(=O)N[C@H](CC(C)C)C(=O)N2CCC[C@H]2C(=O)O[C@@H]1C	-6.08
CC(=O)N1CCC[C@H]1C(=O)N[C@@H]1C(=O)N[C@H](CC(C)C)C(=O)N(C)[C@@H](CC(C)C)C(=O)N[C@@H](CC(C)C)C(=O)N[C@@H](CC(C)C)C(=O)N(C)[C@H](C)C(=O)N[C@@H](CC(C)C)C(=O)N2CCC[C@@H]2C(=O)O[C@@H]1C	-5.73
CC(=O)N1CCC[C@@H]1C(=O)N(C)[C@@H](CC(C)C)C(=O)N[C@@H]1C(=O)N[C@@H](CC(C)C)C(=O)N[C@H](CC(C)C)C(=O)N[C@H](CC(C)C)C(=O)N[C@@H](C)C(=O)N[C@H](CC(C)C)C(=O)N2CCC[C@H]2C(=O)O[C@@H]1C	-6.73
CC(=O)N1CCC[C@@H]1C(=O)N(C)[C@H](CC(C)C)C(=O)N[C@@H]1C(=O)N[C@H](CC(C)C)C(=O)N(C)[C@@H](CC(C)C)C(=O)N(C)[C@@H](CC(C)C)C(=O)N(C)[C@H](C)C(=O)N[C@H](CC(C)C)C(=O)N2CCC[C@H]2C(=O)O[C@@H]1C	-5.43
CC(=O)N1CCC[C@H]1C(=O)N(C)[C@@H](CC(C)C)C(=O)N[C@@H]1C(=O)N[C@@H](CC(C)C)C(=O)N[C@@H](CC(C)C)C(=O)N(C)[C@@H](CC(C)C)C(=O)N(C)[C@@H](C)C(=O)N[C@H](CC(C)C)C(=O)N2CCC[C@H]2C(=O)O[C@@H]1C	-6.58
CC(=O)N[C@@H]1C(=O)N2CCC[C@H]2C(=O)N(C)[C@H](CC(C)C)C(=O)N[C@H](CC(C)C)C(=O)N[C@H](CC(C)C)C(=O)N(C)[C@H](CC(C)C)C(=O)N(C)[C@@H](C)C(=O)N[C@@H](CC(C)C)C(=O)N2CCC[C@@H]2C(=O)O[C@@H]1C	-6.44
CC(=O)N1CCC[C@@H]1C(=O)N(C)[C@H](CC(C)C)C(=O)N[C@@H]1C(=O)N[C@H](CC(C)C)C(=O)N(C)[C@@H](CC(C)C)C(=O)N(C)[C@H](CC(C)C)C(=O)N[C@@H](C)C(=O)N[C@H](CC(C)C)C(=O)N2CCC[C@H]2C(=O)O[C@@H]1C	-5.52
CC(=O)N1CCC[C@H]1C(=O)N(C)[C@H](CC(C)C)C(=O)N[C@@H]1C(=O)N[C@H](CC(C)C)C(=O)N(C)[C@H](CC(C)C)C(=O)N[C@@H](CC(C)C)C(=O)N(C)[C@H](C)C(=O)N[C@@H](CC(C)C)C(=O)N2CCC[C@H]2C(=O)O[C@@H]1C	-5.32
CC(=O)N1CCC[C@H]1C(=O)N[C@@H]1C(=O)N[C@H](CC(C)C)C(=O)N[C@@H](CC(C)C)C(=O)N[C@@H](CC(C)C)C(=O)N[C@@H](CC(C)C)C(=O)N[C@@H](C)C(=O)N[C@@H](CC(C)C)C(=O)N2CCC[C@@H]2C(=O)O[C@@H]1C	-6.33
CC(=O)N1CCC[C@@H]1C(=O)N(C)[C@@H](CC(C)C)C(=O)N[C@@H]1C(=O)N(C)[C@@H](CC(C)C)C(=O)N[C@@H](CC(C)C)C(=O)N(C)[C@@H](CC(C)C)C(=O)N[C@@H](C)C(=O)N[C@H](CC(C)C)C(=O)N2CCC[C@@H]2C(=O)O[C@@H]1C	-6.43
CC(=O)N1CCC[C@H]1C(=O)N(C)[C@@H](CC(C)C)C(=O)N[C@@H]1C(=O)N[C@@H](CC(C)C)C(=O)N(C)[C@@H](CC(C)C)C(=O)N[C@H](CC(C)C)C(=O)N[C@@H](C)C(=O)N[C@@H](CC(C)C)C(=O)N2CCC[C@H]2C(=O)O[C@@H]1C	-6.94
CC(=O)N1CCC[C@@H]1C(=O)N(C)[C@H](CC(C)C)C(=O)N[C@@H]1C(=O)N(C)[C@@H](CC(C)C)C(=O)N[C@@H](CC(C)C)C(=O)N[C@@H](CC(C)C)C(=O)N[C@@H](C)C(=O)N[C@H](CC(C)C)C(=O)N2CCC[C@H]2C(=O)O[C@@H]1C	-7.35
CC(=O)N[C@@H]1C(=O)N2CCC[C@H]2C(=O)N(C)[C@H](CC(C)C)C(=O)N[C@H](CC(C)C)C(=O)N[C@H](CC(C)C)C(=O)N[C@H](CC(C)C)C(=O)N[C@@H](C)C(=O)N[C@@H](CC(C)C)C(=O)N2CCC[C@@H]2C(=O)O[C@@H]1C	-7.36
CC(=O)N1CCC[C@H]1C(=O)N(C)[C@@H](CC(C)C)C(=O)N[C@@H]1C(=O)N(C)[C@@H](CC(C)C)C(=O)N(C)[C@H](CC(C)C)C(=O)N(C)[C@H](CC(C)C)C(=O)N[C@H](C)C(=O)N[C@@H](CC(C)C)C(=O)N2CCC[C@@H]2C(=O)O[C@@H]1C	-5.11
CC(=O)N1CCC[C@H]1C(=O)N(C)[C@@H](CC(C)C)C(=O)N[C@@H]1C(=O)N(C)[C@@H](CC(C)C)C(=O)N[C@@H](CC(C)C)C(=O)N(C)[C@H](CC(C)C)C(=O)N[C@@H](C)C(=O)N[C@@H](CC(C)C)C(=O)N2CCC[C@H]2C(=O)O[C@@H]1C	-5.39
CC(=O)N1CCC[C@H]1C(=O)N(C)[C@H](CC(C)C)C(=O)N[C@@H]1C(=O)N[C@H](CC(C)C)C(=O)N[C@@H](CC(C)C)C(=O)N[C@H](CC(C)C)C(=O)N(C)[C@@H](C)C(=O)N[C@@H](CC(C)C)C(=O)N2CCC[C@H]2C(=O)O[C@@H]1C	-5.13
CC(=O)N1CCC[C@H]1C(=O)N[C@@H]1C(=O)N(C)[C@H](CC(C)C)C(=O)N(C)[C@@H](CC(C)C)C(=O)N(C)[C@H](CC(C)C)C(=O)N[C@@H](CC(C)C)C(=O)N(C)[C@@H](C)C(=O)N[C@@H](CC(C)C)C(=O)N2CCC[C@@H]2C(=O)O[C@@H]1C	-4.93
CC(=O)N1CCC[C@@H]1C(=O)N(C)[C@H](CC(C)C)C(=O)N[C@@H]1C(=O)N[C@@H](CC(C)C)C(=O)N(C)[C@@H](CC(C)C)C(=O)N[C@@H](CC(C)C)C(=O)N(C)[C@@H](C)C(=O)N[C@H](CC(C)C)C(=O)N2CCC[C@H]2C(=O)O[C@@H]1C	-6.32
CC(=O)N1CCC[C@@H]1C(=O)N(C)[C@H](CC(C)C)C(=O)N[C@@H]1C(=O)N[C@H](CC(C)C)C(=O)N[C@@H](CC(C)C)C(=O)N(C)[C@H](CC(C)C)C(=O)N(C)[C@H](C)C(=O)N[C@@H](CC(C)C)C(=O)N2CCC[C@H]2C(=O)O[C@@H]1C	-5.45

Again, the 2 entries with the lowest PAMPA:

| structure (SMILES) | PAMPA (log10 cm/s) |
|---|---|
| CC(=O)N[C@@H]1C(=O)N2CCC[C@H]2C(=O)N(C)[C@H](CC(C)C)C(=O)N[C@H](CC(C)C)C(=O)N[C@H](CC(C)C)C(=O)N[C@H](CC(C)C)C(=O)N[C@@H](C)C(=O)N[C@@H](CC(C)C)C(=O)N2CCC[C@@H]2C(=O)O[C@@H]1C | -7.36 |
| CC(=O)N1CCC[C@@H]1C(=O)N(C)[C@H](CC(C)C)C(=O)N[C@@H]1C(=O)N(C)[C@@H](CC(C)C)C(=O)N[C@@H](CC(C)C)C(=O)N[C@@H](CC(C)C)C(=O)N[C@@H](C)C(=O)N[C@H](CC(C)C)C(=O)N2CCC[C@H]2C(=O)O[C@@H]1C | -7.35 |

Collected by the curators of CycPeptMPDB (Li et al. 2023) from Kelly et al. 2021, doi:10.1021/jacs.0c06115.